{"source": "patent US10182986B2", "about": "“Method of delivering therapeutics and imaging agents to the brain by nanoparticles that cross the blood brain barrier” (CALIFORNIA INSTITUTE OF TECHNOLOGY, priority 2013, dated 2019)", "assay": "Tf-DAK-PEG-OPSS degradation in pH 5.5 buffer followed by MALDI-TOF", "format": "physicochemical", "conditions": "37° C., crude mixture", "description": "Preliminary studies were carried out to determine whether diamino ketal (DAK) could link Tf and PEG and allow for disassociation of Tf at mildly acidic pH. DAK was added to the amine-reactive terminus of NHS-PEG-OPSS followed by reaction with disuccinimidyl suberate (DSS) to reintroduce an amine-reactive functionality. DSS-DAK-PEG-OPSS was added to human holo-Tf to prepare Tf-DAK-PEG-OPSS (Scheme 2). Successful conjugation was verified by MALDI-TOF (FIG. 10). The conjugate's acid-sensitivity was verified by observing slow breakdown of the Tf-PEG's in the crude mixture over 24 hours in pH 5.5 buffer (FIG. 11). Significant decreases in higher orders of PEGylation are clear by 15 minutes and nearly all the PEG has cleaved by 2 hours.\nTf-DAK-PEG-OPSS was diluted to 1 mg/mL in 100 mM NaOAc pH 5.5 at 37° C. At various time points, aliquots were removed, diluted 1:10 in 10 mM NaH2PO4 pH 8.0 and frozen on CO2(s). Once the last aliquot was removed, all samples were melted and immediately measured by MALDI-TOF using a sinapinic acid matrix."}
{"substance": "Tf-DAK-PEG-OPSS: human holo-Tf conjugated through diamino ketal (DAK) linker to PEG-orthopyridyl disulfide", "values": [{"measurement": "Time by which significant decreases in higher orders of PEGylation are clear", "result": "≤ 15", "unit": "min"}]}
